# Test results published in ChEMBL document CHEMBL3886452, “Buprenorphine analogs” (2015).
# Legend:
# Mu-type opioid receptor [1] = biological target: T1, Mu-type opioid receptor (Homo sapiens, UniProt P35372)
# Mu-type opioid receptor [2] = biological target: T1, Mu-type opioid receptor; remark: listed apart in the source
# [3] = biological target: T2, Delta-type opioid receptor (Homo sapiens, UniProt P41143)
# [4] = biological target: T3, Kappa-type opioid receptor (Homo sapiens, UniProt P41145)
# [5] = biological target: T2, Delta-type opioid receptor; remark: listed apart in the source
# [6] = biological target: T3, Kappa-type opioid receptor; settings: sf9
Compound,Ki (Mu-type opioid receptor [1]) [nM],EC50 (Mu-type opioid receptor [2]) [nM],EC50 [3] [nM],EC50 [4] [nM],Ki [5] [nM],Ki [6] [nM]
CO[C@]12CC[C@@]3(C[C@@H]1COCc1ccccc1)[C@H]1Cc4ccc(Br)c5c4[C@@]3(CCN1CC1CC1)[C@H]2O5,49.3,267,135,,,
COc1ccc2c3c1O[C@H]1[C@@]4(OC)CC[C@@]5(C[C@@H]4CSc4nc6ccccc6s4)[C@@H](C2)N(C)CC[C@]315,149,503,556,577,,
CO[C@]12CC[C@@]3(C[C@@H]1COCc1ccccc1)[C@H]1Cc4ccc(C#N)c5c4[C@@]3(CCN1C)[C@H]2O5,147,252,,,3710,
CO[C@]12CC[C@@]3(C[C@@H]1COCc1ccccc1)[C@H]1Cc4ccc(C(=O)O)c5c4[C@@]3(CCN1C)[C@H]2O5,54.2,632,,156,13400,
COc1ccc2c3c1O[C@H]1[C@@]4(OC)CC[C@@]5(C[C@@H]4COCc4ccccc4)[C@@H](C2)N(CCC(N)=O)CC[C@]315,383,1510,,51.9,1480,
COc1ccc2c3c1O[C@H]1[C@@]4(OC)CC[C@@]5(C[C@@H]4COCc4ccccc4)[C@@H](C2)N(CC(N)=O)CC[C@]315,,874,,,10600,
COc1ccc2c3c1O[C@H]1[C@@]4(OC)CC[C@@]5(C[C@@H]4CSc4nc6ccccc6s4)[C@@H](C2)N(CC2CC2)CC[C@]315,50,,211,63.8,468,
COc1ccc2c3c1O[C@H]1[C@@]4(OC)CC[C@@]5(C[C@@H]4CSc4nc(C)ns4)[C@@H](C2)N(CC2CC2)CC[C@]315,116,,640,890,,
COc1ccc2c3c1O[C@H]1[C@@]4(OC)CC[C@@]5(C[C@@H]4COCc4cccc(NCC(=O)O)c4)[C@@H](C2)N(CC2CC2)CC[C@]315,83.3,,45.7,,119,
COc1ccc2c3c1O[C@H]1[C@@]4(OC)CC[C@@]5(C[C@@H]4COCc4c(C)noc4C)[C@@H](C2)N(CC2CC2)CC[C@]315,92.7,127,229,21.1,180,
COc1ccc2c3c1O[C@H]1[C@@]4(OC)CC[C@@]5(C[C@@H]4COCc4ccccc4)[C@@H](C2)N(CCC(=O)O)CC[C@]315,850,1400,,513,17000,64.5
COc1ccc2c3c1O[C@H]1[C@@]4(OC)CC[C@@]5(C[C@@H]4COCc4ccc(OCC(=O)O)cc4)[C@@H](C2)N(CC2CC2)CC[C@]315,545,,400,202,355,31.6
CO[C@]12CC[C@@]3(C[C@@H]1CNCc1ccccc1)[C@H]1Cc4ccc(O)c5c4[C@@]3(CCN1CC1CC1)[C@H]2O5,37.5,,431,108,2430,
